The values that follow are results of earlier work, collected in patent publication US20240277729A1, “METHODS OF TREATMENT AND PHARMACEUTICAL COMPOSITIONS USING AN SGLT-2 INHIBITOR AND A NEUROLEPTIC AGENT” (Boehringer Ingelheim International GmbH, priority 2011, published 2024).

The subject of this series is SGLT. As to conditions: leading to glucosuria and a decrease in blood glucose concentration; cited from earlier work.

For the molecule `O=C(CCc1ccc(O)cc1)c1c(O)cc(O)cc1O[C@@H]1O[C@H](CO)[C@@H](O)[C@H](O)[C@H]1O` [phlorizin], the “reuptake of glucose from the glomerular filtrate into the blood” value was “partially inhibit the reuptake of glucose”.
